# Apparent affinities of Ab-14 variants for a coronavirus HR2 peptide

Source: Li et al. 2023 (doi:10.1038/s41467-023-39022-2), MIT Lincoln Laboratory and A-Alpha Bio; data file from the FLAb repository.

Antigen: PDVDLGDISGINAS, a 14-residue peptide of the SARS-CoV-2 spike HR2 region.

Ab-14 is the parent antibody, in scFv form: VH, then three GGGGS repeats, then VL. The heavy chain is unchanged in all variants.
VH: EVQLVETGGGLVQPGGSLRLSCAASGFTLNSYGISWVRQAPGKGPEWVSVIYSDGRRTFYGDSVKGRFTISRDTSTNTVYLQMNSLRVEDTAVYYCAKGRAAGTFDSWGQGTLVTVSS
VL: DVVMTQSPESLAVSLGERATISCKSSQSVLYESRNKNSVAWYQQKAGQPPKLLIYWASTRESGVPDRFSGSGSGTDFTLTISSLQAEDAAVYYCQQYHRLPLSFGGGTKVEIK

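The variants were designed computationally from a first round of random CDR variants and then made and measured. Their group label is 14L_Ctrl (Ctrl: baseline library sampled from a position-specific scoring matrix, with some repeated check sequences). AlphaSeq pools MATa yeast showing the antibodies with MATalpha yeast showing the peptide. After mating in shaken culture at 30 °C for 16 h, diploids were selected and their barcode pairs sequenced. Scores were corrected for input abundance and mapped to Kd with protein pairs of known affinity run in the same pool. Each pool was mated in six replicate cultures.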

Changes read parent residue, position, new residue, counted from the first residue of the VL shown. The read-out is the apparent dissociation constant on a log10 scale (nM): the lower, the stronger. A pair that was not seen in that replicate is written "ND"; this usually means weak binding, but a binder can also be missed. Nonspecific signal, from three strains lacking the peptide, appeared in 4% of pairings of all light chain designs, centred on 2.64 (5% of these signals below 1.59); values are not corrected for it. For each scFv, signals with the empty controls are counted beside the result, with their mean in brackets. Of ten entries with the parent sequence, four were seen in most replicates (averages 0.34 to 2.37), three in one and three in none, so single entries are noisy. The authors' rule: three or more of the six replicates give a measured affinity, fewer mean a poor binder. A sequence measured in both rounds can read differently, since the two assays cover different ranges.

changes	log10 Kd (nM) by replicate	empty controls
K24A+R34A+W56D+R99W+L100M	0.96 / 4.34 / 1.20 / ND / 1.83 / 1.56	2 of 18 (2.47)
S33N+T59K+L102C	ND / ND / 1.99 / ND / 1.62 / 2.47	0 of 18
S38H+L100W	ND / ND / ND / ND / ND / ND	0 of 18
Y31D+W56G+A57I	0.53 / 0.18 / 0.30 / -0.36 / 0.02 / 0.18	1 of 18 (1.68)
V29I+R34H+K36F+W56E	0.47 / 0.08 / 0.36 / 0.04 / 0.27 / 0.33	1 of 18 (1.94)
S25I+S26D+S28K+W56H	-0.08 / -0.20 / -0.37 / -0.48 / -0.34 / -0.24	3 of 18 (2.71)
S25F+R34S+K36C+E61F+Y97S+S103D	ND / ND / ND / ND / ND / ND	0 of 18
S33N+Q95E	ND / ND / ND / 3.42 / ND / ND	1 of 18 (2.38)
V29G+E61A+H98D	1.36 / 1.02 / 1.09 / 1.06 / 1.01 / 1.59	1 of 18 (2.72)
S26P	ND / 2.13 / 1.47 / ND / 3.52 / ND	0 of 18
L30V+N37M	ND / ND / ND / ND / 1.00 / ND	1 of 18 (1.86)
Y31F+R34S+W56E+A57S+E61A	0.05 / -0.36 / -0.05 / -0.21 / -0.34 / -0.20	2 of 18 (2.01)
R99W	2.60 / ND / 3.25 / ND / 3.25 / 4.52	1 of 18 (3.29)
S26R+Q27P+R34T+Q96A	ND / ND / ND / 2.29 / ND / 2.31	0 of 18
V29E+S33V+W56G+S62L+P101M	1.51 / ND / ND / ND / ND / ND	0 of 18
S25L+N35H+W56G+T59K+L100F	3.05 / ND / 2.83 / 2.08 / 3.26 / 3.15	0 of 18
R34T+Y97D+R99G	ND / ND / ND / ND / ND / ND	0 of 18
S25R+Q27S+V29S+R34K+N35D+A57D+Y97H	ND / ND / ND / ND / ND / ND	1 of 18 (2.39)
S28R+S33E+W56D	-0.03 / 0.46 / 0.53 / 0.76 / 0.40 / 0.86	3 of 18 (1.80)
E32T+W56N+R99T	1.36 / 1.87 / 1.36 / 0.69 / 1.46 / 3.14	0 of 18
S26D+R34D+W56G+E61M	0.52 / 0.34 / 0.13 / 0.36 / 0.45 / 0.65	0 of 18
E32N+S33Q	ND / ND / ND / ND / ND / ND	0 of 18
S25L+S26I+S28P+A57D+S62E	ND / ND / ND / ND / 2.14 / ND	2 of 18 (1.86)
V29E+L30H+W56E+T59K+H98A+R99D	0.21 / 0.04 / -0.14 / -0.29 / -0.30 / 0.15	0 of 18
S25Y+S33A	ND / ND / ND / 2.16 / 2.65 / 2.02	0 of 18
S25A+N35P+K36E	ND / ND / ND / ND / ND / ND	0 of 18
S25I+S28P+L30I+K36R	1.30 / 1.40 / 1.58 / 1.79 / 1.34 / 1.75	0 of 18
L30H+Y31W	ND / ND / ND / ND / ND / 4.20	0 of 18
L30S+K36L+L100D	ND / ND / ND / ND / ND / ND	0 of 18
K36D+H98P+R99H	ND / ND / ND / ND / ND / ND	0 of 18
S25V+L30M+R34T+W56E	0.61 / 0.48 / 0.49 / 0.48 / 0.35 / 0.88	0 of 18
S62L+H98D+P101E	ND / ND / ND / ND / ND / ND	1 of 18 (2.60)
A57G+L100T	ND / ND / ND / ND / ND / ND	2 of 18 (2.48)
K24M+Y31E+K36A+N37S	ND / ND / ND / ND / ND / ND	0 of 18
V29E+Y31H+N37Q+Y97C	3.77 / ND / ND / ND / ND / ND	0 of 18
S26D+R34L+W56T+S103C	2.29 / 2.79 / 2.50 / ND / ND / 2.70	0 of 18
S26E+V29G+W56S+T59V+H98K	0.85 / 0.61 / 0.45 / 0.26 / 0.47 / 0.62	0 of 18
R34Y+P101W	ND / ND / ND / ND / ND / ND	0 of 18